Data taken from patent US9474759B2 (priority 2011, dated 2016).

Experiment: Cardiac toxicity (in vitro ADMET profile)

SMILES | cardiac toxicity: none observed up to [µM]
CC(C)C[C@H](NC(=O)OCc1ccccc1)C(=O)N[C@@H](CC1CCNC1=O)C(=O)C(=O)NC(C)C (some centres unmarked) [GC375] | > 100
CC(C)C[C@H](NC(=O)OCc1ccccc1)C(=O)N[C@H](C=O)C[C@@H]1CCNC1=O [GC373] | > 100
